Source: PubChem
The list is not random: actives were taken first. Their share in the collection is about 1.8%.
RAD52 inh: blocks human RAD52 DNA annealing; AID 651710; P43351; actives 0.46% (n = 360,000); inhibition, % at 18.7 µM; recombinant RAD52 DNA annealing, FRET fluorescence;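 active means every replicate showing at least 50% inhibition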
SIRT5 inh: blocks human SIRT5 desuccinylation of peptide; Q9NXA8; Purified SirT5, succinyl-peptide AMC, trypsin-coupled fluorescence; inhibition, % at 15 µM; actives 1.1% (n = 330,000); in the data active means inhibition above about 15%
E-selectin induc: induces E-selectin expression in human endothelial cells; activation, % at 7.58 µM; HUVEC E-selectin immunofluorescence imaging; normalized: neutral wells 0, TNF-alpha wells 100; actives 0.37% (n = 260,000); AID 686992; P16581;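 active means mean E-selectin-positive cell signal at least 10% of the positive control, reached in at least 60% of replicates, without over 20% cell loss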
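Test system: HUVEC | Signal: Immunofluorescence imaging | Read-out: Percent E-selectin-positive cells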
Yeast UUG start: yeast start codon fidelity modulation | S. cerevisiae UUG-firefly luciferase reporter, luminescence/redox ratio | activity score, % at 18.7 µM | 0.13% of 350,000 active | AID 602363;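 active means replicate mean at a twofold rise or more, about +100% in these data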;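 further: firefly luciferase made from a UUG start codon reports start codon fidelity; reporter light over untreated wells divided by growth signal over untreated wells; some hits fall short of that in this replicate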
MLL AF4-AF9 inh: inhibitors of human MLL-AF4/AF9 interaction; P42568; AlphaScreen, biotin-AF4 peptide binding to FLAG-AF9; inhibition, % at 10 µM; actives 0.47% (n = 350,000);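 active means every replicate reaching a set inhibition limit, whatever the replicate mean, cut at about 25% in these data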
RAD54 branch: blocks human RAD54 Holliday junction branch migration. Q92698. FAM/BHQ fluorescence. actives 0.14% (n = 360,000). inhibition, % at 10.4 µM;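 active means mean normalized replicate activity at least 40 and at least half of replicates scoring 40 or more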;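 further: inhibitors cause a drop in the FAM fluorescence signal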
Numbers stand for hits; . = inactive; / = no result; ! = repeats disagree.

SMILES	RAD52 inh	SIRT5 inh	E-selectin induc	Yeast UUG start	MLL AF4-AF9 inh	RAD54 branch
Cc1ccc(S(=O)(=O)Nc2nc3ccccc3nc2N2CCN(c3ccccc3F)CC2)cc1	/	/	/	.	/	.
CC(=O)Nc1ccc(S(=O)(=O)Nc2ccc(N3CCOCC3)cc2)cc1	/	/	/	.	/	.
CC(=O)Nc1ccc(S(=O)(=O)NC2=C(N3CCN(c4ccc(F)cc4)CC3)C(=O)c3ccccc3C2=O)cc1	.	.	.	.	45.0	.
CNC(=O)C[C@H]1CC[C@@H]2[C@H](COC[C@H](O)CN2Cc2ccc(Cl)c(Cl)c2)O1	.	.	.	.	.	.
CNCCC=C1c2ccccc2CCc2ccccc21	.	.	.	.	37.6!	.
Cc1ccc(-c2nc3ccc(Cl)cn3c2Cc2ccsc2)cc1	.	.	.	.	.	.
Fc1ccc(-c2nc3ccc(Cl)cn3c2Cc2ccsc2)cc1	.	27.6	.	.	.	.
COc1ccc(N2CCN(C(=O)[C@@H](NC(=O)c3ccccc3Cl)C(C)C)CC2)cc1	.	16.4	.	.	.	.
CSc1ccccc1NC(=O)CN1c2ccccc2CC1C (stereo unspecified)	.	.	/	/	51.0	/
CC(C)(C)C(=O)N1CCN(c2ccnc3cc(Cl)ccc23)CC1	.	.	/	.	.	.
CC(=O)c1ccc(N2CCN(c3ccnc4cc(Cl)ccc34)CC2)cc1	.	.	40.1	.	.	.
CCCNC(=O)C[C@H]1CC[C@@H]2[C@H](COc3ccc(NC(=O)Cc4ccccc4)cc3C(=O)N2C)O1	.	.	.	.	.	.
Cc1[nH]c2ccccc2c1/C=N/Nc1ccccn1	.	.	.	/	26.3	/
CC=Cc1ccc2n(c1=O)C[C@H]1[C@H](CO)[C@@H](C(=O)NC3CCCCC3)N(CCC)[C@@H]21 (mixture of isomers)	/	/	.	/	/	/
CC=Cc1ccc2n(c1=O)C[C@@H]1[C@@H](CO)[C@H](C(=O)NCc3ccccc3F)N(CC)[C@H]21 (mixture of isomers)	.	16.4	.	.	.	.
CC=Cc1ccc2n(c1=O)C[C@H]1[C@H](CO)[C@@H](C(=O)NC3CCCC3)N(CCC)[C@@H]21 (mixture of isomers)	92.0	.	.	/	.	/
C[C@H]1CN([C@@H](C)CO)C(=O)c2cc(-c3cccc(F)c3)cnc2O[C@H]1CN(C)Cc1cccnc1	.	.	.	.	.	.
O=C(O)c1ccc(CN(Cc2ccccc2)S(=O)(=O)c2ccc(Cl)cc2)cc1	.	.	/	/	.	/
O=C(O)c1ccc(S(=O)(=O)N(Cc2ccccc2)C2CCCCC2)cc1	.	22.1	.	.	.	.
C[C@@H]1CCCCO[C@@H](CN(C)S(=O)(=O)c2ccc(F)cc2)[C@@H](C)CN([C@@H](C)CO)C(=O)c2cc(NS(=O)(=O)c3cn(C)cn3)ccc2O1	.	.	/	.	.	.
Cc1cc(OCc2cc(C(=O)NC(C)c3cnn(C)c3)no2)cc(C)c1Cl (stereo unspecified)	.	/	.	.	.	.
Cc1cc(OCc2cc(C(=O)NC(C)c3c(C)nn(C)c3C)no2)cc(C)c1Cl (stereo unspecified)	.	18.3	.	.	.	.
CN(C)C1(CNC(=O)C2CCN(S(=O)(=O)c3cc(Cl)ccc3Cl)CC2)CCCCC1	.	.	70.2	.	.	.
Cc1ccc(S(=O)(=O)Nc2ccc3c(c2)C(=O)N([C@H](C)CO)C[C@@H](C)[C@H](CN(C)Cc2ccc(Cl)c(Cl)c2)OCCCC[C@H](C)O3)cc1	.	18.6	/	.	.	.
Cc1ccc(S(=O)(=O)Nc2ccc3c(c2)C(=O)N([C@H](C)CO)C[C@@H](C)[C@@H](CN(C)Cc2ccc(Cl)c(Cl)c2)OCCCC[C@H](C)O3)cc1	.	.	/	/	.	/
SMILES	RAD52 inh	SIRT5 inh	E-selectin induc	Yeast UUG start	MLL AF4-AF9 inh	RAD54 branch
Cc1ccc(S(=O)(=O)Nc2ccc3c(c2)C(=O)N([C@@H](C)CO)C[C@@H](C)[C@@H](CN(C)Cc2ccc(Cl)c(Cl)c2)OCCCC[C@@H](C)O3)cc1	.	17.4	/	.	.	.
CCCNC(=O)C[C@H]1CC[C@H]2[C@@H](COc3ccc(NC(=O)Nc4cccc(C)c4)cc3C(=O)N2C)O1	.	.	.	.	.	.
COc1ccccc1S(=O)(=O)N(C)C[C@@H]1Oc2cc(C#CCC3CCCC3)ccc2S(=O)(=O)N([C@@H](C)CO)C[C@@H]1C	.	17.0	.	.	.	.
COc1ccccc1S(=O)(=O)N(C)C[C@H]1Oc2cc(C#CCC(C)C)ccc2S(=O)(=O)N([C@@H](C)CO)C[C@H]1C	.	.	/	.	.	.
COc1ccccc1S(=O)(=O)N(C)C[C@H]1Oc2cc(C#CCC(C)C)ccc2S(=O)(=O)N([C@H](C)CO)C[C@@H]1C	.	29.7	/	.	.	.
Cc1cccc(-c2ccc([C@H]3[C@H](CO)N4CCCCN(S(=O)(=O)c5cccc(C)c5)C[C@@H]34)cc2)c1	.	18.8	.	.	.	.
N#Cc1cccc(-c2ccc([C@H]3[C@@H](CO)N4CCCCN(S(=O)(=O)c5ccccc5)C[C@H]34)cc2)c1	.	17.9	.	.	.	.
Cc1cccc(-c2ccc([C@@H]3[C@@H](CO)N4CCCCN(S(=O)(=O)c5cccc(C)c5)C[C@H]34)cc2)c1	.	.	.	.	.	.
CCC(=O)N1CCCCN2[C@H](CO)[C@H](c3ccc(-c4cccc(C#N)c4)cc3)[C@@H]2C1	.	20.7	.	.	.	.
Cc1cccc(S(=O)(=O)N2CCCCN3[C@@H](CO)[C@@H](c4ccc(-c5ccccc5)cc4)[C@@H]3C2)c1	63.5	.	/	.	.	.
CCCC#Cc1ccc([C@@H]2[C@@H](CO)N3C(=O)CN(C(=O)Nc4ccc(F)cc4)C[C@H]23)cc1	.	.	.	/	.	/
O=C(CN1CCOCC1)N1CCCCN2[C@@H](CO)[C@@H](c3ccc(-c4ccccc4)cc3)[C@@H]2C1	.	.	.	.	.	.
O=C(CN1CCOCC1)N1CCCCN2[C@H](C1)[C@H](c1ccc(-c3ccccc3)cc1)[C@@H]2CO	.	21.3	.	.	.	.
Cc1cccc(S(=O)(=O)N2CCCCN3[C@H](CO)[C@H](c4ccc(-c5ccccc5)cc4)[C@H]3C2)c1	.	.	/	.	.	.
Cc1cccc(S(=O)(=O)N2CCCCN3[C@H](CO)[C@@H](c4ccc(-c5ccccc5)cc4)[C@@H]3C2)c1	.	15.6	/	.	.	.
CCC(=O)N1[C@H](CN(CC)C(C)=O)[C@@H](c2ccc(-c3ccccc3)cc2)[C@@H]1CO	/	/	.	.	/	.
CCC(=O)N(C)C[C@@H]1[C@@H](c2ccc(-c3ccccc3F)cc2)[C@H](CO)N1C(C)=O	.	22.0	.	.	.	.
CCC(=O)N(C)C[C@H]1[C@@H](c2ccc(-c3ccccc3F)cc2)[C@@H](CO)N1C(C)=O	.	.	.	.	.	.
